From PubChem BioAssay (NCI)
Some tests of the compounds listed are not included; inactive here does not mean inactive elsewhere.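 Compound exposure: 48 hours, 5 concentrations, 96-well plates. GI50 = concentration required for 50% inhibition of growth. TGI is the concentration that stops growth completely.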

What was measured:
Assay in all cases: growth of human tumour cells (NCI), 48 h
786-0 renal = system: 786-0 renal
A498 renal = system: A498 renal
A549 NSCLC = system: A549 NSCLC
ACHN renal = system: ACHN renal
BT-549 breast = system: BT-549 breast
CCRF-CEM leukemia = system: CCRF-CEM leukemia
COLO 205 colon = system: COLO 205 colon
DU-145 prostate = system: DU-145 prostate
EKVX NSCLC = system: EKVX NSCLC
HCC-2998 colon = system: HCC-2998 colon
HCT-116 colon = system: HCT-116 colon
HCT-15 colon = system: HCT-15 colon
HL-60(TB) leukemia = system: HL-60(TB) leukemia
HOP-62 NSCLC = system: HOP-62 NSCLC
HOP-92 NSCLC = system: HOP-92 NSCLC
HS 578T breast = system: HS 578T breast
IGROV1 ovarian = system: IGROV1 ovarian
K-562 leukemia = system: K-562 leukemia
KM12 colon = system: KM12 colon
LOX IMVI melanoma = system: LOX IMVI melanoma
M14 melanoma = system: M14 melanoma
MALME-3M melanoma = system: MALME-3M melanoma
MCF7 breast = system: MCF7 breast
MDA-MB-231 breast = system: MDA-MB-231 breast
MDA-MB-435 = system: MDA-MB-435
MDA-N = system: MDA-N
MOLT-4 leukemia = system: MOLT-4 leukemia
NCI-H226 lung = system: NCI-H226 lung
NCI-H23 lung = system: NCI-H23 lung
NCI-H460 lung = system: NCI-H460 lung
NCI/ADR-RES ovarian = system: NCI/ADR-RES ovarian
OVCAR-3 ovarian = system: OVCAR-3 ovarian
OVCAR-5 ovarian = system: OVCAR-5 ovarian
OVCAR-8 ovarian = system: OVCAR-8 ovarian
PC-3 prostate = system: PC-3 prostate
RPMI-8226 leukemia = system: RPMI-8226 leukemia
RXF 393 renal = system: RXF 393 renal
SF-268 CNS = system: SF-268 CNS
SF-295 CNS = system: SF-295 CNS
SF-539 CNS = system: SF-539 CNS
SK-MEL-2 melanoma = system: SK-MEL-2 melanoma
SK-MEL-28 melanoma = system: SK-MEL-28 melanoma
SK-MEL-5 melanoma = system: SK-MEL-5 melanoma
SK-OV-3 ovarian = system: SK-OV-3 ovarian
SN12C renal = system: SN12C renal
SNB-19 CNS = system: SNB-19 CNS
SNB-75 CNS = system: SNB-75 CNS
SR leukemia = system: SR leukemia
SW-620 colon = system: SW-620 colon
T-47D breast = system: T-47D breast
TK-10 renal = system: TK-10 renal
U251 CNS = system: U251 CNS
UACC-257 melanoma = system: UACC-257 melanoma
UACC-62 melanoma = system: UACC-62 melanoma
UO-31 renal = system: UO-31 renal

## CC#CC(O)(C(=O)OC1C2CCN(CC2)C1C)C1CCCC1 (stereo not given)
786-0 renal
  GI50: > 100 µM
  TGI: > 100 µM
A498 renal
  GI50: > 100 µM
  TGI: > 100 µM
A549 NSCLC
  GI50: > 100 µM
  TGI: > 100 µM
ACHN renal
  GI50: > 100 µM
  TGI: > 100 µM
BT-549 breast
  GI50: > 100 µM
  TGI: > 100 µM
CCRF-CEM leukemia
  GI50: > 100 µM
  TGI: > 100 µM
COLO 205 colon
  GI50: > 100 µM
  TGI: > 100 µM
DU-145 prostate
  GI50: > 100 µM
  TGI: > 100 µM
EKVX NSCLC
  GI50: > 100 µM
  TGI: > 100 µM
HCC-2998 colon
  GI50: > 100 µM
  TGI: > 100 µM
HCT-116 colon
  GI50: > 100 µM
  TGI: > 100 µM
HCT-15 colon
  GI50: > 100 µM
  TGI: > 100 µM
HL-60(TB) leukemia
  GI50: > 100 µM
  TGI: > 100 µM
HOP-62 NSCLC
  GI50: > 100 µM
  TGI: > 100 µM
HOP-92 NSCLC
  GI50: > 100 µM
  TGI: > 100 µM
HS 578T breast
  GI50: > 100 µM
  TGI: > 100 µM
IGROV1 ovarian
  GI50: > 100 µM
  TGI: > 100 µM
K-562 leukemia
  GI50: > 100 µM
  TGI: > 100 µM
KM12 colon
  GI50: > 100 µM
  TGI: > 100 µM
LOX IMVI melanoma
  GI50: > 100 µM
  TGI: > 100 µM
M14 melanoma
  GI50: > 100 µM
  TGI: > 100 µM
MALME-3M melanoma
  GI50: > 100 µM
  TGI: > 100 µM
MCF7 breast
  GI50: > 100 µM
  TGI: > 100 µM
MDA-MB-231 breast
  GI50: > 100 µM
  TGI: > 100 µM
MDA-MB-435
  GI50: > 100 µM
  TGI: > 100 µM
MDA-N
  GI50: > 100 µM
  TGI: > 100 µM
MOLT-4 leukemia
  GI50: > 100 µM
  TGI: > 100 µM
NCI-H226 lung
  GI50: > 100 µM
  TGI: > 100 µM
NCI-H23 lung
  GI50: > 100 µM
  TGI: > 100 µM
NCI-H460 lung
  GI50: > 100 µM
  TGI: > 100 µM
NCI/ADR-RES ovarian
  GI50: > 100 µM
  TGI: > 100 µM
OVCAR-3 ovarian
  GI50: > 100 µM
  TGI: > 100 µM
OVCAR-5 ovarian
  GI50: > 100 µM
  TGI: > 100 µM
OVCAR-8 ovarian
  GI50: > 100 µM
  TGI: > 100 µM
PC-3 prostate
  GI50: > 100 µM
  TGI: > 100 µM
RPMI-8226 leukemia
  GI50: > 100 µM
  TGI: > 100 µM
RXF 393 renal
  GI50: > 100 µM
  TGI: > 100 µM
SF-268 CNS
  GI50: > 100 µM
  TGI: > 100 µM
SF-295 CNS
  GI50: > 100 µM
  TGI: > 100 µM
SF-539 CNS
  GI50: > 100 µM
  TGI: > 100 µM
SK-MEL-2 melanoma
  GI50: > 100 µM
  TGI: > 100 µM
SK-MEL-28 melanoma
  GI50: > 100 µM
  TGI: > 100 µM
SK-MEL-5 melanoma
  GI50: > 100 µM
  TGI: > 100 µM
SK-OV-3 ovarian
  GI50: > 100 µM
  TGI: > 100 µM
SN12C renal
  GI50: > 100 µM
  TGI: > 100 µM
SNB-19 CNS
  GI50: > 100 µM
  TGI: > 100 µM
SNB-75 CNS
  GI50: > 100 µM
  TGI: > 100 µM
SR leukemia
  GI50: > 100 µM
  TGI: > 100 µM
SW-620 colon
  GI50: > 100 µM
  TGI: > 100 µM
T-47D breast
  GI50: > 100 µM
  TGI: > 100 µM
TK-10 renal
  GI50: > 100 µM
  TGI: > 100 µM
U251 CNS
  GI50: > 100 µM
  TGI: > 100 µM
UACC-257 melanoma
  GI50: > 100 µM
  TGI: > 100 µM
UACC-62 melanoma
  GI50: > 100 µM
  TGI: > 100 µM
UO-31 renal
  GI50: > 100 µM
  TGI: > 100 µM
